Target: Tyrosine-protein kinase BTK (Mus musculus, UniProt P35991)

The chains behind the UniProt entries cited, without tags or fusion partners. Where a name states a change or a piece, a line headed by the entry shows the natural chain unless it says otherwise.
UniProt P35991: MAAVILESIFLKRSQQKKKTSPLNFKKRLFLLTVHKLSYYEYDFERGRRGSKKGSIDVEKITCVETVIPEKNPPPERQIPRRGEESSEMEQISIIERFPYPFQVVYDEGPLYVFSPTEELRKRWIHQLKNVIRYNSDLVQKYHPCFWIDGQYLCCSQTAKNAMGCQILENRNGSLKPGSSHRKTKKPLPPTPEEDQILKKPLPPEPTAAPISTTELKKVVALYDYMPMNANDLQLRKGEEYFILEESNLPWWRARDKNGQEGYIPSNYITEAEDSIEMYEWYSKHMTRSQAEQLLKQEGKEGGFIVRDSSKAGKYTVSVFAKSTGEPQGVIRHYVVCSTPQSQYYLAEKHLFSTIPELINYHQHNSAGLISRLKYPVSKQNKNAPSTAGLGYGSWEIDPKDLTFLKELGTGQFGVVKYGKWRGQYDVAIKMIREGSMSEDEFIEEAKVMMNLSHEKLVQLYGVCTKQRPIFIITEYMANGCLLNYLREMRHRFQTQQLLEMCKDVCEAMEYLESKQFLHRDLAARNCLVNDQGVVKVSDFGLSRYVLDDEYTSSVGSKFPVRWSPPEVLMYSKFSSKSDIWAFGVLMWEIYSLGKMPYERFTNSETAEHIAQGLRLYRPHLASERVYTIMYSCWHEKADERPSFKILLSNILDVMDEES

IC50: > 50 µM
SMILES: Cn1cc(-c2cccc(N3CCc4c(nc5n4CCCC5)C3=O)c2CO)cc(Nc2ccncn2)c1=O

From BindingDB's records for doi:10.1021/acsmedchemlett.7b00103 (Genentech, 2017)
